This assay addresses mammalian target of rapamycin (mTOR) (Homo sapiens (Human), UniProt P42345). The note with it: read-out: mTOR IC50.
One may read the IC50 as the concentration at which inhibition is half-maximal. Regarding `COc1ccc(Nc2ncc(C(C)N3CCN(S(C)(=O)=O)CC3)cc2-c2nc(C)nc3[nH]cnc23)cn1` (centres unmarked) [Example 140, N-(6-methoxypyridin-3-yl)-3-(2-methyl-9H-purin-6-yl)-5-(1-(4-(methylsulfonyl)piperazin-1-yl)ethyl)pyridin-2-amine], the IC50 is 0.476 µM.
In the case of `COc1ncc(Nc2ncc(C(C)N3CCN(C(=O)N(C)C)CC3)cc2-c2nc(C)nc(N)n2)cc1F` (centres unmarked) [Example 294, 4-(1-(5-(4-Amino-6-Methyl-1,3,5-Triazin-2-yl)-6-(5-Fluoro-6-Methoxypyridin-3-Ylamino)Pyridin-3-yl)Ethyl)-N,N-Dimethylpiperazine-1-Carboxamide] it was > 10 µM; in that of `COc1ccc(Nc2ncc([C@H](O)C(F)(F)F)cc2-c2nc(C)nc(N)n2)cn1` [Example 323, (S)-1-(5-(4-amino-6-methyl-1,3,5-triazin-2-yl)-6-(6-methoxypyridin-3-ylamino)pyridin-3-yl)-2,2,2-trifluoroethanol], 0.379 µM.
Consider `CC(=O)Nc1ccc(Nc2ncc(CN3CCN(S(C)(=O)=O)CC3)cc2-c2nc(C)nc(N)n2)cc1F` [Example 267, N-(4-(3-(4-Amino-6-Methyl-1,3,5-Triazin-2-yl)-5-((4-(Methylsulfonyl)Piperazin-1-yl)Methyl)Pyridin-2-Ylamino)-2-Fluorophenyl)Acetamide], for which the IC50 came out at 0.623 µM.
In the case of `COc1ncc(Nc2ncc(C=O)cc2-c2nc(C)nc(N)n2)cc1F` [Example 187, 5-(4-Amino-6-Methyl-1,3,5-Triazin-2-yl)-6-(5-Fluoro-6-Methoxypyridin-3-Ylamino)Nicotinaldehyde] it was > 10 µM; in that of `COc1ncc(Nc2ncc(C(C)(C)O)cc2-c2cc(N)nc(C)n2)cc1F` [Example 345, 2-(5-(6-Amino-2-Methylpyrimidin-4-yl)-6-(5-Fluoro-6-Methoxypyridin-3-Ylamino)Pyridin-3-yl)Propan-2-ol], > 10 µM; in that of `Cc1nc(N)nc(-c2cc(CN3CCN(S(C)(=O)=O)C[C@@H]3C)cnc2Nc2ccc(Cl)nc2)n1` [Example 318, (S)-4-(2-(6-Chloropyridin-3-Ylamino)-5-((2-Methyl-4-(Methylsulfonyl)Piperazin-1-yl)Methyl)Pyridin-3-yl)-6-Methyl-1,3,5-Triazin-2-Amine], > 10 µM.
With `COc1ncc(Nc2ncc(C(C)(C)O)cc2-c2nc(C)nc(N)n2)cc1C` [Example 354, 2-(5-(4-Amino-6-Methyl-1,3,5-Triazin-2-yl)-6-(6-Methoxy-5-Methylpyridin-3-Ylamino)Pyridin-3-yl)Propan-2-ol], the IC50 was 6 µM.
`COc1ncc(Nc2nc(-c3ccncc3)ccc2-c2nc(C)nc(N)n2)cc1F` [Example 175, 5-(4-Amino-6-Methyl-1,3,5-Triazin-2-yl)-N-(5-Fluoro-6-Methoxypyridin-3-yl)-2,4′-Bipyridin-6-Amine]: the 50% inhibitory concentration (IC50) is > 10 µM.
On to `COc1ccc(Nc2ncc(Cc3ccc(S(C)(=O)=O)cc3)cc2-c2nc(C)nc(N)n2)cn1` [Example 141, 4-(2-(6-methoxypyridin-3-ylamino)-5-(4-(methylsulfonyl)benzyl)pyridin-3-yl)-6-methyl-1,3,5-triazin-2-amine], for which the IC50 is > 10 µM.
As for `COc1ccc(Nc2ncc(C(=O)N3CCOCC3)cc2-c2nc(C)nc(N)n2)cn1` [Example 151, 4-(2-((6-Methoxy-3-Pyridinyl)Amino)-5-(4-Morpholinylcarbonyl)-3-Pyridinyl)-6-Methyl-1,3,5-Triazin-2-Amine], the IC50 came out at 5.39 µM.
`Cc1nc(N)nc(-c2cccnc2Nc2cccc(OC(F)F)c2)n1` [Example 164, 4-(2-(3-(Difluoromethoxy)Phenylamino)Pyridin-3-yl)-6-Methyl-1,3,5-Triazin-2-Amine]: the IC50 was > 10 µM.
In the case of `COCCNCc1cnc(Nc2ccc(OC)nc2)c(-c2nc(C)nc(N)n2)c1` [Example 227, 4-(5-((2-Methoxyethylamino)Methyl)-2-(6-Methoxypyridin-3-Ylamino)Pyridin-3-yl)-6-Methyl-1,3,5-Triazin-2-Amine] it was > 10 µM; in that of `COc1ccc(Nc2ncc(-c3ccc(C)nc3)cc2-c2nc(C)nc(N)n2)cn1` [Example 251, 5-(4-Amino-6-Methyl-1,3,5-Triazin-2-yl)-N-(6-Methoxypyridin-3-yl)-6′-Methyl-3,3′-Bipyridin-6-Amine], > 10 µM; in that of `COc1ncc(Nc2ncc([C@@H](C)N3CCN(S(C)(=O)=O)C[C@@H]3C)cc2-c2cc(N)nc(C)n2)cc1F` [Example 306, 6-(2-((5-fluoro-6-methoxy-3-pyridinyl)amino)-5-((1R)-1-((2S)-2-methyl-4-(methylsulfonyl)-1-piperazinyl)ethyl)-3-pyridinyl)-2-methyl-4-pyrimidinamine], > 10 µM.
`COc1ncc(Nc2ncccc2-c2nc(C)nc(N)n2)cc1F` [Example 246, 4-(2-(5-Fluoro-6-Methoxypyridin-3-Ylamino)Pyridin-3-yl)-6-Methyl-1,3,5-Triazin-2-Amine]: the IC50 is > 10 µM.
In the case of `COc1ccc(Nc2ncc(C(C)=O)nc2-c2cc(N)nc(C)n2)cn1` [Example 285, 1-(6-(6-Amino-2-Methylpyrimidin-4-yl)-5-(6-Methoxypyridin-3-Ylamino)Pyrazin-2-yl)Ethanone] it was > 10 µM.
In the case of `Cc1nc(N)nc(-c2cc(C(C)(C)O)cnc2Nc2cncc(S(C)(=O)=O)c2)n1` [Example 355, 2-(5-(4-Amino-6-Methyl-1,3,5-Triazin-2-yl)-6-(5-(Methylsulfonyl)Pyridin-3-Ylamino)Pyridin-3-yl)Propan-2-ol] it was > 10 µM; in that of `Cc1nc(N)nc(-c2cc(CN3CCN(S(C)(=O)=O)CC3)cnc2Nc2ccc3ocnc3c2)n1` [Example 128, N-(3-(4-amino-6-methyl-1,3,5-triazin-2-yl)-5-((4-(methylsulfonyl)piperazin-1-yl)methyl)pyridin-2-yl)benzo[d]oxazol-5-amine], > 10 µM; in that of `Cc1nc(N)nc(-c2cccnc2Nc2ccc(N)nc2)n1` [Example 50, N5-(3-(4-Amino-6-Methyl-1,3,5-Triazin-2-yl)Pyridin-2-yl)Pyridine-2,5-Diamine], 5.95 µM.
In the case of `COc1ccc(Nc2ncc(CNCc3ccncc3)cc2-c2nc(C)nc3[nH]cnc23)cn1` [Example 137, N-(6-methoxypyridin-3-yl)-3-(2-methyl-9H-purin-6-yl)-5-((pyridin-4-ylmethylamino)methyl)pyridin-2-amine] it was 0.55 µM; in that of `COc1ccc(Nc2ncccc2-c2nc(C)nc(N)n2)cc1OC` [Example 170, 4-(2-(3,4-Dimethoxyphenylamino)Pyridin-3-yl)-6-Methyl-1,3,5-Triazin-2-Amine], > 10 µM.
For the molecule `Cc1ccc(-c2nc(C)nc(N)n2)c(Nc2cncc(F)c2)n1` [Example 200, 4-(2-(5-Fluoropyridin-3-Ylamino)-6-Methylpyridin-3-yl)-6-Methyl-1,3,5-Triazin-2-Amine], the IC50 was > 10 µM.
In the case of `Cc1nc(N)c(F)c(-c2cccnc2Nc2cccc3[nH]ncc23)n1` [Example 29, N-(3-(6-Amino-5-Fluoro-2-Methylpyrimidin-4-yl)Pyridin-2-yl)-1H-Indazol-4-Amine] it was > 50 µM; in that of `CC(=O)Nc1ccc(Nc2ncccc2-c2ncnc3[nH]cnc23)cn1` [Example 16, N-(5-(3-(9H-Purin-6-yl)Pyridin-2-Ylamino)Pyridin-2-yl)Acetamide], 1.69 µM; in that of `Cc1nc(N)nc(-c2cc([C@H](C)N3CCOCC3)cnc2Nc2cnc(Cl)c(NS(C)(=O)=O)c2)n1` (single isomer, unassigned) [Example 372], 0.339 µM.
In the case of `COc1ccc(Nc2ncc(N3CCC(O)C3)cc2-c2nc(C)nc3[nH]cnc23)cn1` (centres unmarked) [Example 98, 1-(6-(6-Methoxypyridin-3-Ylamino)-5-(2-Methyl-9H-Purin-6-yl)Pyridin-3-yl)Pyrrolidin-3-ol] it was > 10 µM; in that of `COCCOc1ccc(-c2nc(C)nc(N)n2)c(Nc2cnc(OC)c(F)c2)n1` [Example 259, 4-(2-(5-Fluoro-6-Methoxypyridin-3-Ylamino)-6-(2-Methoxyethoxy)Pyridin-3-yl)-6-Methyl-1,3,5-Triazin-2-Amine], > 10 µM; in that of `COc1ncc(Nc2nc(CN3CCOCC3)ccc2-c2nc(C)nc(N)n2)cc1F` [Example 198, 4-(2-(5-Fluoro-6-Methoxypyridin-3-Ylamino)-6-(Morpholinomethyl)Pyridin-3-yl)-6-Methyl-1,3,5-Triazin-2-Amine], > 10 µM.
In the case of `COc1ccc(Nc2ncc([C@H](C)N3CCN(S(C)(=O)=O)CC3)cc2-c2nc(C)nc(N)n2)cn1` [Example 145, (S)-4-(2-(6-Methoxypyridin-3-Ylamino)-5-(1-(4-(Methylsulfonyl)Piperazin-1-yl)Ethyl)Pyridin-3-yl)-6-Methyl-1,3,5-Triazin-2-Amine] it was 1.72 µM.
For `COc1ncc(Nc2ncc(C(C)(C)O)cc2-c2nc(C)nc(N)n2)cc1F` [Example 273, 2-(5-(4-Amino-6-Methyl-1,3,5-Triazin-2-yl)-6-(5-Fluoro-6-Methoxypyridin-3-Ylamino)Pyridin-3-yl)Propan-2-ol], the IC50 was > 10 µM.
On to `COc1ccc(Nc2ncc(C)cc2-c2nc(C)nc(N)n2)cn1` [Example 31, 4-(2-(6-Methoxypyridin-3-Ylamino)-5-Methylpyridin-3-yl)-6-Methyl-1,3,5-Triazin-2-Amine], for which the IC50 was > 50 µM.
For `Cc1nc(-c2cc(Cl)cnc2Nc2cccc3[nH]ncc23)c2nc[nH]c2n1` [Example 61, N-(5-Chloro-3-(2-methyl-9H-purin-6-yl)pyridin-2-yl)-1H-indazol-4-amine], the IC50 is > 10 µM.
In the case of `COc1ccc(Nc2ncc(CN3CC[S+]([O-])CC3)cc2-c2nc(C)nc(N)n2)cn1` [Example 202, 4-(2-(6-Methoxypyridin-3-Ylamino)-5-(1-Sulfoxidemorpholinomethyl)Pyridin-3-yl)-6-Methyl-1,3,5-Triazin-2-Amine] it was > 10 µM.
In the case of `COc1ccc(Nc2ncc(-c3ccc(OC)nc3)cc2-c2nc(C)nc(N)n2)cn1` [Example 169, 5-(4-Amino-6-Methyl-1,3,5-Triazin-2-yl)-6′-Methoxy-N-(6-Methoxypyridin-3-yl)-3,3′-Bipyridin-6-Amine] it was > 10 µM.

Values taken from patent publication US8772480B2, “Inhibitors of PI3 kinase and/or mTOR” (priority 2009, dated 2014).
